# Ab-14 light chain CDR variants: yeast mating affinities

The measurements come from Engelhart et al. 2022 (doi:10.1038/s41597-022-01779-4) through the FLAb antibody collection.

Target: peptide PDVDLGDISGINAS, taken from heptad repeat 2 (HR2) of SARS-CoV-2 spike.

Parent scFv Ab-14: VH joined to VL by the linker GGGGSGGGGSGGGGS. Changes lie in the light chain CDRs alone.
VH: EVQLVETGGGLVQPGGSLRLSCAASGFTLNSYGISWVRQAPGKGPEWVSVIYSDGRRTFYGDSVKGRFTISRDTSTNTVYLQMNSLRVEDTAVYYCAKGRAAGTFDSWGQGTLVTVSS
VL: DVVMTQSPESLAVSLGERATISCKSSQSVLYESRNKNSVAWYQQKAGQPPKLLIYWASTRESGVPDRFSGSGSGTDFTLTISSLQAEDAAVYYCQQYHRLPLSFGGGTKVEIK

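AAYL50 was designed without a model: most single CDR substitutions and a random sample of double and triple ones. In AlphaSeq, yeast of one mating type display the scFv and yeast of the other type display the target. Pairs that bind mate more often; barcode pairs of the diploids are counted by sequencing. A regression on co-assayed BCL2-family reference pairs converts the normalised counts of each replicate to an apparent Kd. There are three technical replicates.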

Sequences are complete VL domains.
This list gathers variants with a substitution at S28 (VL, numbered from residue 1).
Each Kd is an estimate from the mating assay, the geometric mean of the replicates in which the pair was seen; lower is stronger.
"nd" marks a missing value. The strain was present, yet no cells mated with the target were sequenced in any replicate, which points to weak or no binding.
Nonspecific signal, from three strains lacking the peptide, appeared in 18% of pairings of library AAYL50, centred on 15 µM (5% of these signals below 970 nM); values are not corrected for it.

* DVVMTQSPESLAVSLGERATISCWSSQRVLYESRNKNSVAWYQQKAGQPPKLLIYWASTRESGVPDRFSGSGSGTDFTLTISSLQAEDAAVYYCQQSHRLPLSFGGGTKVEIK = 25 µM (2 of 3 replicates)
* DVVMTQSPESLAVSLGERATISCKSSQHVGYESRNKNSVAWYQQKAGQPPKLLIYWASTRESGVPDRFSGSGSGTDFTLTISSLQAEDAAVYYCQQYHALPLSFGGGTKVEIK = 10 nM (3 of 3 replicates)
* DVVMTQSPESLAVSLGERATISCKSSQLVLYESRNKVSVAWYQQKAGQPPKLLIYWASTRESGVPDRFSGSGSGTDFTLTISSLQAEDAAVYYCQQYHRLPLSFGGGTKVEIK = 2.4 µM (3 of 3 replicates)
* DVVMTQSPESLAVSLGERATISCKSSQYVLYESRNKNSVAWYQQKAGQPPKLLIYWISTRECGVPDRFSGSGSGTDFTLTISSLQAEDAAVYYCQQYHRLPLSFGGGTKVEIK = nd (0 of 3 replicates)
* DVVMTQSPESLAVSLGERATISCKSSQWVLYESRNKNSVAWYQQKAGQPPKLLIYGASTRESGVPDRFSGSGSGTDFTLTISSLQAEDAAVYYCQQYHRLPLSFGGGTKVEIK = 870 pM (3 of 3 replicates)
* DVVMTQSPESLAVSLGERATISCKSSQMVLYESRNKNSVTWYQQKAGQPPKLLIYWASTRESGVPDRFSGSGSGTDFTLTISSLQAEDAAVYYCQQYHRFPLSFGGGTKVEIK = nd (0 of 3 replicates)
* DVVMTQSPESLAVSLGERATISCKSSQKVLYESRNKNSVAWYQQKAGQPPKLLIYWALTRESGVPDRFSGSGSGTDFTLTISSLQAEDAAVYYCQQYHRLPLSFGGGTKVEIK = 250 nM (3 of 3 replicates)
* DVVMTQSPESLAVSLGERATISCKSSQTVLYESRNKNSVAWYQQKAGQPPKLLIYWASTRESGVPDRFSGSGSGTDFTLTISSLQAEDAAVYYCQGYHRLPLSFGGGTKVEIK = 2.7 µM (2 of 3 replicates)
* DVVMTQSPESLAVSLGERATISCKSSQLVLYESRNKNSVAWYQQKAGQPPKLLIYWAATQESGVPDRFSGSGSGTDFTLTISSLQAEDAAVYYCQQYHRLPLSFGGGTKVEIK = 530 µM (2 of 3 replicates)
* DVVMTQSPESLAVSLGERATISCKSSQCVLYESRNKNSVAWYQQKAGQPPKLLIYWASTRESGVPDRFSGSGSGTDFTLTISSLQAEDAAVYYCQQRHRLPLSFGGGTKVEIK = nd (0 of 3 replicates)
* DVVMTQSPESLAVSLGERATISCKSSQAVLHESRNKNSVAWYQQKAGQPPKLLIYWASTRESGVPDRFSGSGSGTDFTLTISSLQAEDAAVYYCQQMHRLPLSFGGGTKVEIK = nd (0 of 3 replicates)
* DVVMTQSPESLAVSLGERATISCKSSQNVLWESFNKNSVAWYQQKAGQPPKLLIYWASTRESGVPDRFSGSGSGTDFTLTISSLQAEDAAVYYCQQYHRLPLSFGGGTKVEIK = 15 nM (3 of 3 replicates)
* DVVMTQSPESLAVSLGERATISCKSSQCVLYESRNFNSVAWYQQKAGQPPKLLIYWASTRESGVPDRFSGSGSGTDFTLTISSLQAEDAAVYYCQQYHRLPLPFGGGTKVEIK = nd (0 of 3 replicates)
* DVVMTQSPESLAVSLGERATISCASSQQVLYESRNKNLVAWYQQKAGQPPKLLIYWASTRESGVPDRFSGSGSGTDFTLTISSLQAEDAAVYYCQQYHRLPLSFGGGTKVEIK = 26 µM (2 of 3 replicates)
* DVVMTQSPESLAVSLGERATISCHFSQWVLYESRNKNSVAWYQQKAGQPPKLLIYWASTRESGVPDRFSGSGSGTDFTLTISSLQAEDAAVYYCQQYHRLPLSFGGGTKVEIK = 89 nM (3 of 3 replicates)
* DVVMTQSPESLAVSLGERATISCKSSQQVLYESRNKNSVAWYQQKAGQPPKLLIYWASTRESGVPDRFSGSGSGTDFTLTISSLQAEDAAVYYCQIYHYLPLSFGGGTKVEIK = 2.4 µM (1 of 3 replicates)
* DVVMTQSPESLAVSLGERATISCKSAQAVLYESRNKHSVAWYQQKAGQPPKLLIYWASTRESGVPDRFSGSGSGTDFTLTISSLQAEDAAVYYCQQYHRLPLSFGGGTKVEIK = 98 nM (3 of 3 replicates)
* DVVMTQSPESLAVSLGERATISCKSSQLQLYESRNKNSVAWYQQKAGQPPKLLIYWASTRESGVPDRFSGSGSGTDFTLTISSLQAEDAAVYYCQQYHPLPLSFGGGTKVEIK = nd (0 of 3 replicates)
* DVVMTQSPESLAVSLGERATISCKSSQVVLYESRNKNSVAWYQQKAGQPPKLLIYWISTRESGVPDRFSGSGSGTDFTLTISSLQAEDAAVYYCQIYHRLPLSFGGGTKVEIK = 2.2 µM (1 of 3 replicates)
* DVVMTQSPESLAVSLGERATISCKSSQVVLYESRMKNSVAWYQQKAGQPPKLLIYWASTREYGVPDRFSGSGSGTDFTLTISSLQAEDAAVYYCQQYHRLPLSFGGGTKVEIK = 99 nM (3 of 3 replicates)
* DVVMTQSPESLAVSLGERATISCKSSQHVLYESRNKNAVAWYQQKAGQPPKLLIYWASTRESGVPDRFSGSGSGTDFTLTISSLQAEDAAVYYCQQYHRAPLSFGGGTKVEIK = 83 nM (3 of 3 replicates)
* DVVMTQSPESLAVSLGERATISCKSSQAVLYESRNKNSVAWYQQKAGQPPKLLIYWASERESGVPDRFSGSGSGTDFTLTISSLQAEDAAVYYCQQYHRLPNSFGGGTKVEIK = nd (0 of 3 replicates)

The 2 strongest on average among those seen in every replicate, once more:

{"VL": "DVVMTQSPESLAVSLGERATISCKSSQWVLYESRNKNSVAWYQQKAGQPPKLLIYGASTRESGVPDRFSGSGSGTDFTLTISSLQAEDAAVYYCQQYHRLPLSFGGGTKVEIK", "apparent Kd": "870 pM", "seen in": "3/3"}
{"VL": "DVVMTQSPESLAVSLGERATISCKSSQHVGYESRNKNSVAWYQQKAGQPPKLLIYWASTRESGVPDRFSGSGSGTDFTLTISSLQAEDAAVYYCQQYHALPLSFGGGTKVEIK", "apparent Kd": "10 nM", "seen in": "3/3"}

For reference, the parent read 4.4 nM as the reference entry and 48 nM as a member of this library.